# CycPeptMPDB entries from one study

PAMPA measures passive passage through an artificial lipid membrane.
Permeability is given as log10 of P in cm/s; higher (less negative) is more permeable.

CC(C)C[C@H]1C(=O)N[C@@H](Cc2ccccc2)C(=O)N2CCC[C@@H]2C(=O)N[C@H](C)C(=O)N(Cc2ccccc2)CC(=O)N[C@@H](Cc2ccccc2)CC(=O)N2CCC[C@@H]2C(=O)N1C is reported with PAMPA -6.09 (log10 cm/s).
CC(C)C[C@@H]1C(=O)N[C@H](CC(C)C)C(=O)N2CCC[C@@H]2C(=O)N(Cc2ccccc2)CC(=O)N[C@@H](Cc2ccccc2)C(=O)N2CCC[C@@H]2C(=O)N(C)[C@H](C)C(=O)N1C is reported with PAMPA -5.63 (log10 cm/s).
CC(C)C[C@@H]1C(=O)N[C@H](CC(C)C)C(=O)N2CCC[C@H]2C(=O)N(C)[C@@H](CC(C)C)C(=O)N[C@@H](Cc2ccccc2)C(=O)N2CCC[C@@H]2C(=O)N(C)[C@H](C)C(=O)N1C is reported with PAMPA -4.90 (log10 cm/s).
CC(C)C[C@H]1NC(=O)[C@@H](C)N(C)C(=O)[C@H](Cc2ccccc2)NC(=O)CN(Cc2ccccc2)C(=O)[C@H]2CCCN2C(=O)[C@@H](CC(C)C)NC1=O is reported with PAMPA -5.63 (log10 cm/s).
CC(C)C[C@@H]1C(=O)N(C)[C@@H](CC(C)C)C(=O)N2CCC[C@@H]2C(=O)N[C@H](CC(C)C)C(=O)N[C@@H](Cc2ccccc2)C(=O)N2CCC[C@@H]2C(=O)N(C)[C@@H](C)C(=O)N1C is reported with PAMPA -5.40 (log10 cm/s).
CC(C)C[C@@H]1C(=O)N2CCC[C@H]2C(=O)N(C)[C@H](CC(C)C)C(=O)N[C@@H](Cc2ccccc2)C(=O)N2CCC[C@@H]2C(=O)N[C@@H](Cc2ccccc2)CC(=O)N(C)[C@@H](CC(C)C)C(=O)N1C is reported with PAMPA -5.52 (log10 cm/s).
CC(C)C[C@@H]1NC(=O)[C@@H](CC(C)C)N(C)C(=O)[C@H](C)NC(=O)[C@@H]2CCCN2C(=O)[C@H](Cc2ccccc2)NC(=O)[C@H](CC(C)C)N(C)C(=O)[C@H]2CCCN2C1=O is reported with PAMPA -6.30 (log10 cm/s).
CC(C)C[C@@H]1NC(=O)C[C@H](Cc2ccccc2)NC(=O)[C@H](Cc2ccccc2)NC(=O)[C@H](CC(C)C)N(C)C(=O)[C@H]2CCCN2C(=O)[C@H](CC(C)C)NC1=O is reported with PAMPA -5.39 (log10 cm/s).
CC(C)C[C@H]1NC(=O)[C@H]2CCCN2C(=O)CN(Cc2ccccc2)C(=O)[C@@H](CC(C)C)NC(=O)[C@@H](C)NC(=O)[C@H](Cc2ccccc2)NC1=O is reported with PAMPA -5.73 (log10 cm/s).
CCCN1CC(=O)N(C)[C@@H](CC(C)C)C(=O)N(C)[C@H](CC(C)C)C(=O)N2CCC[C@@H]2C(=O)N(Cc2ccccc2)CC(=O)N[C@@H](Cc2ccccc2)C(=O)N2CCC[C@@H]2C1=O is reported with PAMPA -5.63 (log10 cm/s).
CC(C)C[C@H]1C(=O)N[C@@H](Cc2ccccc2)C(=O)N2CCC[C@@H]2C(=O)N(C)[C@H](C)C(=O)N(Cc2ccccc2)CC(=O)N[C@@H](Cc2ccccc2)CC(=O)N2CCC[C@H]2C(=O)N1C is reported with PAMPA -5.47 (log10 cm/s).
CC(C)C[C@@H]1C(=O)N(C)[C@@H](CC(C)C)C(=O)N2CCC[C@@H]2C(=O)N[C@H](CC(C)C)C(=O)N[C@@H](Cc2ccccc2)C(=O)N(C)[C@H](C)C(=O)N1C is reported with PAMPA -5.04 (log10 cm/s).

Again, the 2 entries with the lowest PAMPA:

Listed for CC(C)C[C@@H]1NC(=O)[C@@H](CC(C)C)N(C)C(=O)[C@H](C)NC(=O)[C@@H]2CCCN2C(=O)[C@H](Cc2ccccc2)NC(=O)[C@H](CC(C)C)N(C)C(=O)[C@H]2CCCN2C1=O: PAMPA -6.30 (log10 cm/s).
Listed for CC(C)C[C@H]1C(=O)N[C@@H](Cc2ccccc2)C(=O)N2CCC[C@@H]2C(=O)N[C@H](C)C(=O)N(Cc2ccccc2)CC(=O)N[C@@H](Cc2ccccc2)CC(=O)N2CCC[C@@H]2C(=O)N1C: PAMPA -6.09 (log10 cm/s).

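The data file gives no further conditions (lipid, pH, time, direction or concentration), and values from different papers need not be comparable. Other peptides of the study may be missing here. Entries at the database's floor value (log10 P of -10) are not listed.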

Source: CycPeptMPDB (Li et al. 2023), which took these values from Townsend et al. 2020, doi:10.26434/chemrxiv.13335941.v1.